Target: 5-HT2C receptor (Homo sapiens (Human), UniProt P28335)
Assay: 5-HT2C functional assay, TRUPATH (BRET)
Settings: for EC50: read-out: 5-HT2C EC50; for 5-HT2C Emax: relative to 5-HT

The chains behind the UniProt entries cited, without tags or fusion partners. Residues count along the entry.
UniProt P28335, 33-458 limits assumed: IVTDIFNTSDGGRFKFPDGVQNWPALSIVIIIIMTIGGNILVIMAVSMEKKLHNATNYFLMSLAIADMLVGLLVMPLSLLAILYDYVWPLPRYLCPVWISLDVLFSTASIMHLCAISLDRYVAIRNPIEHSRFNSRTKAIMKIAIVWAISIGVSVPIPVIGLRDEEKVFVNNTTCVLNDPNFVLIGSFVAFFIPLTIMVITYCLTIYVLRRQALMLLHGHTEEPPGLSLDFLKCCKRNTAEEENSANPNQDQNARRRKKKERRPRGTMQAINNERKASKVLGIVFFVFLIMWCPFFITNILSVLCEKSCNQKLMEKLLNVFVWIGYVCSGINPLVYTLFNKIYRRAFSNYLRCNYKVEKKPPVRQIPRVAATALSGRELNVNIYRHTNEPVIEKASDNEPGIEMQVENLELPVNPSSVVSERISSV

Row | Structure (SMILES) | EC50 | 5-HT2C Emax
1 | COc1cc(SCC#N)c(OC)cc1CCN | 35.6 nM | 84%
2 | C#CCCCSc1cc(OC)c(CCN)cc1OC | 13.1 nM | 84%

Reference: patent US20250236589A1, “THERAPEUTIC PHENETHYLAMINE COMPOSITIONS AND METHODS OF USE” (Cybin IRL Limited, priority 2022, published 2025)
